## Antibody variant affinities, Ab-14 light chain, assay B

Reference: Li et al. 2023, doi:10.1038/s41467-023-39022-2. File: FLAb, binding data.

Antigen: PDVDLGDISGINAS, a 14-residue peptide of the SARS-CoV-2 spike HR2 region.

The variants keep the heavy chain, the linker and the frameworks of Ab-14 (scFv order VH, the linker GGGGSGGGGSGGGGS, VL).
VH: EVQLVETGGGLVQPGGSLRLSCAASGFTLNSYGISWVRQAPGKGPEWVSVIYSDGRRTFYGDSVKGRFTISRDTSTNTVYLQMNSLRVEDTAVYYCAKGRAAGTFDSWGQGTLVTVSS
VL: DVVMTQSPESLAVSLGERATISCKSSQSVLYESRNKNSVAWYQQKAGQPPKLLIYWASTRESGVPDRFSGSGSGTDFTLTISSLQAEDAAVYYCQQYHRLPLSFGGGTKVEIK

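Phage display of a naive human antibody library on the peptide gave the parent. This is the validation round: designs drawn from the data on random variants, tested in the same kind of assay. Their group label is 14L_En_Gibbs (En: ensemble of fine-tuned language models; Gibbs: Gibbs sampling). Affinity was read by AlphaSeq, a pooled yeast mating assay with surface-displayed partners. Mating (16 h, 30 °C) was followed by selection of diploids and sequencing of their barcodes. A regression on co-assayed BCL2-family reference pairs converts the normalised counts of each replicate to an apparent Kd. The assay was run in six technical replicates.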

Each variant is given by its three light chain CDRs, as the data file delimits them; those of the parent are KSSQSVLYESRNKNSVA, WASTRES, QQYHRLPLS.
Numbers give log10(Kd / nM), so 0 is 1 nM and 3 is 1 µM. Smaller is tighter.
A mean of the replicates is given; it leaves out those without a signal.
A pair that was not seen in that replicate is written "nd"; this usually means weak binding, but a binder can also be missed.
The parent sequence was in this pool as ten entries: three were never detected, three once, and four in most replicates, with averages from 0.34 to 2.37.
As a blank, each scFv also met three strains without target: over all light chain designs, 4% of these pairings were detected, typically at 2.64 and seldom below 1.59. Also given: how often the same scFv was detected with the empty control strains, with their mean in brackets.
A sequence measured in both rounds can read differently, since the two assays cover different ranges.
The authors averaged sequences with at least three values out of six and counted those with two or fewer as poor binders.

{"CDR-L1": "RITYAAEQLQRIDSSVA", "CDR-L2": "AGSARCR", "CDR-L3": "QQYYRLPLS", "log10 Kd, replicates": "1.34 0.47 0.50 0.88 1.05 0.95", "mean log10 Kd (nM)": "0.87", "empty controls": "0/18"}
{"CDR-L1": "HIDDFEPSEGEKWNAIA", "CDR-L2": "QDATRLQ", "CDR-L3": "QAYQRLPLS", "log10 Kd, replicates": "2.31 1.31 1.31 1.34 1.27 1.34", "mean log10 Kd (nM)": "1.48", "empty controls": "3/18 (3.44)"}
{"CDR-L1": "KMSGNLTDQENIKHSIA", "CDR-L2": "EQVLAME", "CDR-L3": "QQYQKLPLD", "log10 Kd, replicates": "nd nd nd 3.51 nd nd", "mean log10 Kd (nM)": "3.51", "empty controls": "0/18"}
{"CDR-L1": "KIQDNLGELLQQINSVA", "CDR-L2": "STEEKSD", "CDR-L3": "QSYMRLPLS", "log10 Kd, replicates": "1.52 1.26 1.80 1.53 1.06 1.79", "mean log10 Kd (nM)": "1.49", "empty controls": "0/18"}
{"CDR-L1": "QMKMSLLQGIYIKDSVA", "CDR-L2": "QSDIREL", "CDR-L3": "QQYEHLPLS", "log10 Kd, replicates": "1.53 1.19 0.99 1.10 0.94 0.96", "mean log10 Kd (nM)": "1.12", "empty controls": "0/18"}
{"CDR-L1": "NLSWKTIMQNMDSYAVA", "CDR-L2": "QTEQREA", "CDR-L3": "QQYAILPLS", "log10 Kd, replicates": "nd nd nd nd nd nd", "mean log10 Kd (nM)": "nd", "empty controls": "0/18"}
{"CDR-L1": "HIDTINRGEDMKQDPIA", "CDR-L2": "QADHREQ", "CDR-L3": "QQYFQLPLI", "log10 Kd, replicates": "0.77 1.38 1.09 1.54 1.43 1.29", "mean log10 Kd (nM)": "1.25", "empty controls": "0/18"}
{"CDR-L1": "NLSIQRQHQNMDANAVA", "CDR-L2": "QTEIREV", "CDR-L3": "QQYAILPLA", "log10 Kd, replicates": "1.24 0.73 0.91 0.15 0.78 1.06", "mean log10 Kd (nM)": "0.81", "empty controls": "0/18"}
{"CDR-L1": "HVSSMDMADGGIINSVA", "CDR-L2": "GDKLLER", "CDR-L3": "QQYMRLPLS", "log10 Kd, replicates": "0.00 -0.22 0.60 0.35 0.35 1.11", "mean log10 Kd (nM)": "0.36", "empty controls": "1/18 (1.43)"}
{"CDR-L1": "SMQFYTENFAEWGQNIA", "CDR-L2": "DVSATTA", "CDR-L3": "QQYHRLPLA", "log10 Kd, replicates": "2.57 1.42 nd 1.77 1.56 1.57", "mean log10 Kd (nM)": "1.78", "empty controls": "2/18 (3.19)"}
{"CDR-L1": "KLMQSLQGEPKDWYAIA", "CDR-L2": "EGESATT", "CDR-L3": "QQYARLPLM", "log10 Kd, replicates": "nd nd nd nd nd nd", "mean log10 Kd (nM)": "nd", "empty controls": "0/18"}
{"CDR-L1": "HLHTIMYTEGIGTNSIA", "CDR-L2": "DANLHVT", "CDR-L3": "QQYFRLPIM", "log10 Kd, replicates": "1.58 1.07 1.05 1.41 0.90 1.46", "mean log10 Kd (nM)": "1.25", "empty controls": "1/18 (2.73)"}
{"CDR-L1": "NVHALMNISSEFQNSIA", "CDR-L2": "DQECRDA", "CDR-L3": "QQYFRLPLS", "log10 Kd, replicates": "nd nd nd nd nd nd", "mean log10 Kd (nM)": "nd", "empty controls": "0/18"}
{"CDR-L1": "KLSDPTREWIANQNAVA", "CDR-L2": "EDADTVH", "CDR-L3": "QQYARLPLT", "log10 Kd, replicates": "nd 2.25 nd nd nd nd", "mean log10 Kd (nM)": "2.25", "empty controls": "0/18"}
{"CDR-L1": "KIYELGKGSIKTNNNIA", "CDR-L2": "QTDIREL", "CDR-L3": "QSYNRLPLS", "log10 Kd, replicates": "1.20 0.81 1.41 0.64 1.05 1.01", "mean log10 Kd (nM)": "1.02", "empty controls": "0/18"}
{"CDR-L1": "KLGYPSYGEVNGKNNIA", "CDR-L2": "EMDQLTF", "CDR-L3": "QQYSHLPLT", "log10 Kd, replicates": "nd 2.50 2.21 2.30 3.91 2.59", "mean log10 Kd (nM)": "2.70", "empty controls": "0/18"}
{"CDR-L1": "NLTTGYRQGALNTDNVA", "CDR-L2": "HGNMRCA", "CDR-L3": "QQYYRLPLS", "log10 Kd, replicates": "0.42 -0.21 -0.28 0.00 -0.04 0.38", "mean log10 Kd (nM)": "0.04", "empty controls": "0/18"}
{"CDR-L1": "RLWQQMYGFNIHANAIA", "CDR-L2": "EGKERTW", "CDR-L3": "QQYFRLPLS", "log10 Kd, replicates": "nd nd nd nd nd nd", "mean log10 Kd (nM)": "nd", "empty controls": "1/18 (0.87)"}
{"CDR-L1": "KFLEGMRGNQQNEQAVA", "CDR-L2": "DAQHRVY", "CDR-L3": "QQYCHLPLS", "log10 Kd, replicates": "0.92 1.04 0.94 0.54 0.88 1.16", "mean log10 Kd (nM)": "0.91", "empty controls": "1/18 (2.70)"}
{"CDR-L1": "HFDDLMVEWDANQSQVA", "CDR-L2": "DHNEAQH", "CDR-L3": "QQYARLPLS", "log10 Kd, replicates": "nd 1.35 nd 1.05 1.96 1.20", "mean log10 Kd (nM)": "1.39", "empty controls": "0/18"}
{"CDR-L1": "HTQHLGFGDPKHWNSIA", "CDR-L2": "EVSQVCS", "CDR-L3": "QQYMRLPLT", "log10 Kd, replicates": "0.59 0.96 0.80 1.19 1.15 0.49", "mean log10 Kd (nM)": "0.86", "empty controls": "0/18"}
{"CDR-L1": "VFSGQWGLNTTQNSSVA", "CDR-L2": "NVSETML", "CDR-L3": "QQYNRLPLM", "log10 Kd, replicates": "2.00 2.62 1.30 1.92 2.43 1.91", "mean log10 Kd (nM)": "2.03", "empty controls": "1/18 (4.19)"}
{"CDR-L1": "QLEWDQLWGANYDYSVA", "CDR-L2": "AQDVISP", "CDR-L3": "QQYDRLPLI", "log10 Kd, replicates": "nd nd 1.35 nd nd 2.60", "mean log10 Kd (nM)": "1.97", "empty controls": "2/18 (2.22)"}
{"CDR-L1": "KVFMELAYDKASTRNIA", "CDR-L2": "DASVHCA", "CDR-L3": "QQYQRLPLG", "log10 Kd, replicates": "0.78 0.56 0.65 0.40 0.41 0.87", "mean log10 Kd (nM)": "0.61", "empty controls": "2/18 (2.72)"}
{"CDR-L1": "KVDMYELPNEFNRSHVA", "CDR-L2": "QAEVRAP", "CDR-L3": "QQYWRLPLE", "log10 Kd, replicates": "nd 2.11 nd nd nd nd", "mean log10 Kd (nM)": "2.11", "empty controls": "0/18"}
{"CDR-L1": "QLGKNQVGETLMQDAIA", "CDR-L2": "HDALRAD", "CDR-L3": "QQYFRLPLL", "log10 Kd, replicates": "0.57 0.65 0.77 0.51 0.73 0.83", "mean log10 Kd (nM)": "0.68", "empty controls": "2/18 (3.68)"}

The last 2 entries again:

{"CDR-L1": "KVDMYELPNEFNRSHVA", "CDR-L2": "QAEVRAP", "CDR-L3": "QQYWRLPLE", "log10 Kd, replicates": "nd 2.11 nd nd nd nd", "mean log10 Kd (nM)": "2.11", "empty controls": "0/18"}
{"CDR-L1": "QLGKNQVGETLMQDAIA", "CDR-L2": "HDALRAD", "CDR-L3": "QQYFRLPLL", "log10 Kd, replicates": "0.57 0.65 0.77 0.51 0.73 0.83", "mean log10 Kd (nM)": "0.68", "empty controls": "2/18 (3.68)"}